From article doi:10.1101/2025.04.10.648262, “Time-resolved phenotyping at subcellular resolution reveals shared principles and key trade-offs across antimicrobial peptide activities” (bioRxiv, 2026) come the findings set out here.

The assay concerns E. coli (MG1655). Format: cell-based, Escherichia coli. As to conditions: E. coli MG1655, M9gluCAAT, 37°C, 20 h, inoculum ~250 cells/mL; max growth rate < 0.2 log(OD)/h; mode across three biological replicates with two technical replicates each. The method, then:
For all experiments and E. coli strains, cells were grown in a medium (M9gluCAAT) with M9 salts (33.7 mM Na2HPO4, 22mM KH2PO4, 8.55 mM NaCl, 9.35 mM NH4Cl), 0.2% (w/v) glucose, 0.4% (w/v) casamino acids, 1 mM MgSO4, 0.3 mM CaCl2, 1 μg/mL thiamine, and trace elements (13.4 mM ethylene-diamine-tetra-acetic-acid (EDTA), 3.1 mM FeCl3-6H2O, 0.62 mM ZnCl2, 76 μM CuCl2-2H2O, 42 μM CoCl2-2H2O, 162 μM H3BO3, 8.1 μM MnCl2-4H2O). Prior to every experiment, cells were first inoculated into M9gluCAAT and grown to stationary phase at 37°C. […]
Except for the biofilm experiments, the strains used in this study were derived from MG1655 (ATCC 47076), which was used to estimate the minimum inhibitory concentration (MIC) for all the studied peptides (or peptoids) using a microplate reader (Figure 1A). […]
To determine the minimal inhibitory concentration (MIC) of the selected AMPs against either MG1655 or ATCC 25922 E. coli strains, exponentially growing cells were diluted in fresh medium to an OD = 10^−6 (~500 cells/mL) and mixed 50:50 with titrated AMP concentrations (which were chosen to be over a range that included the MIC) in a 96-well plate (flat bottom with low evaporation lid, 3595, Corning, Arizona, USA). […] OD curves were sampled every 5 min for a total of 48 h using a microplate reader (BioTek Synergy 2, Agilent Technologies Inc., California, USA). […]

On to `CC[C@H](C)[C@H](NC(=O)CN)C(=O)NCC(=O)N[C@@H](C)C(=O)N[C@H](C(=O)N[C@@H](CC(C)C)C(=O)N[C@@H](CCCCN)C(=O)N[C@H](C(=O)N[C@@H](CC(C)C)C(=O)N[C@H](C(=O)N[C@H](C(=O)NCC(=O)N[C@@H](CC(C)C)C(=O)N1CCC[C@H]1C(=O)N[C@@H](C)C(=O)N[C@@H](CC(C)C)C(=O)N[C@H](C(=O)N[C@@H](CO)C(=O)N[C@@H](Cc1c[nH]c2ccccc12)C(=O)N[C@H](C(=O)N[C@@H](CCCCN)C(=O)N[C@@H](CCCNC(=N)N)C(=O)N[C@@H](CCCCN)C(=O)N[C@@H](CCCNC(=N)N)C(=O)N[C@@H](CCC(N)=O)C(=O)N[C@@H](CCC(N)=O)C(N)=O)[C@@H](C)CC)[C@@H](C)CC)[C@@H](C)O)[C@@H](C)O)C(C)C)C(C)C` [Mltt, melittin], for which the “MIC (mode MIC)” value worked out at 4 µM.
